The values below are quoted from earlier work in patent publication US4315942A, “Intravenously administrable iron supplement” (New England Medical Center, Inc., priority 1979, dated 1982).

For the series the following is noted: in vivo, cited from earlier work.

On to iron dextran, for which the “pain on intramuscular injection” value is listed as “painful”. Also, the anaphylaxis result (iv) is reported as “unacceptable incidence of anaphylaxis”.
